Laboratory results as given in article PMC3834762 (British Journal of Pharmacology, 2013).

By UniProt entry, the sequences of proteins in these tests, tags left out. Where a name states a change or a piece, a line headed by the entry shows the natural chain unless it says otherwise. Residues count along the entry.
UniProt O95264, 22-441: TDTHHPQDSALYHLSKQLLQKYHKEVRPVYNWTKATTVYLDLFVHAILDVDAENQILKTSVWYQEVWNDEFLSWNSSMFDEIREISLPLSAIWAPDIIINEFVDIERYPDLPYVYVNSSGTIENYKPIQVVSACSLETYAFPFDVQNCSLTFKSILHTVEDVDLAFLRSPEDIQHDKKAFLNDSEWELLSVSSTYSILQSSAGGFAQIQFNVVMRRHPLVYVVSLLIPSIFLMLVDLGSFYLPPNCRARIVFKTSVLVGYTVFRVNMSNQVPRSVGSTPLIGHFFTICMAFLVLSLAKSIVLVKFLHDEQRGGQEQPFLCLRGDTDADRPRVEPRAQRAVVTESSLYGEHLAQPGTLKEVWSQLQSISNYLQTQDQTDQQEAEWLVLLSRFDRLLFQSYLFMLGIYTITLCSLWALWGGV
UniProt P46098, 24-478 T279S: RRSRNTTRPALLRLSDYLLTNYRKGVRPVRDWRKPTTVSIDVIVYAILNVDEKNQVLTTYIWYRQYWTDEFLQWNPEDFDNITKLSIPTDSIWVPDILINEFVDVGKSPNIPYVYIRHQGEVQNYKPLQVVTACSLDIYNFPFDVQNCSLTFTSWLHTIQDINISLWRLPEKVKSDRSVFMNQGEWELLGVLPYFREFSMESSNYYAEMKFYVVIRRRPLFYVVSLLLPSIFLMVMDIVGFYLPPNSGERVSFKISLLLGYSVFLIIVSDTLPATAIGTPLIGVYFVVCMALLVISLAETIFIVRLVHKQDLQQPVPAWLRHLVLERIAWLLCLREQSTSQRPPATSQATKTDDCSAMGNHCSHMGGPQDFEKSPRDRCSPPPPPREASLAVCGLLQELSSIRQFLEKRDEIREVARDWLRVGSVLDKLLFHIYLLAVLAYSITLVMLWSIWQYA

Target: 5‐HT3AT6'SB receptors (Homo sapiens, UniProt O95264+P46098, T279S)
Test: two‐electrode voltage clamp, 5‐HT3AT6'SB mutant receptors in Xenopus oocytes
Format: cell-based
Details: mutant vs wild type heteromer

NCCc1c[nH]c2ccc(O)cc12 [5‐HT, 5‐hydroxytryptamine]
decrease in EC50 at 5‐HT3AT6'SB compared to 5‐HT3AB receptors: 67 fold
